Measured values reported in paper PMC8626775, “Anti-schistosomal activities of quinoxaline-containing compounds: From hit identification to lead optimisation” (European Journal of Medicinal Chemistry, 2021).

Tested on: HepG2 cells
Assay: HepG2 MTT cytotoxicity assay
Settings: for Selectivity Index (SI) Adult worms: HepG2 CC50 versus adult worm EC50; for Selectivity Index (SI) Somula: HepG2 CC50 versus schistosomula EC50

SMILES | Selectivity Index (SI) Adult worms | Selectivity Index (SI) Somula
O=[N+]([O-])c1ccc2nc(Nc3ccc(Cl)c(Cl)c3)c(Nc3ccc(Cl)c(Cl)c3)nc2c1 [Compound 22, N^2, N^3-bis(3,4-dichlorophenyl)-6-nitroquinoxaline-2,3-diamine] | 3.11 | 0.59
O=[N+]([O-])c1ccc2nc(Nc3ccc(Cl)cc3)c(Nc3ccc(Cl)cc3)nc2c1 [Compound 26, N^2, N^3-bis(4-chlorophenyl)-6-nitroquinoxaline-2,3-diamine] | 6.33 | 0.32
O=[N+]([O-])c1ccc2nc(Nc3ccc(C(F)(F)F)cc3)c(Nc3ccc(C(F)(F)F)cc3)nc2c1 [Compound 31, 6-nitro-N2, N3-bis(4-(trifluoromethyl)phenyl)quinoxaline-2,3-diamine] | 10.21 | 0.26
COc1ccc(Nc2nc3ccc([N+](=O)[O-])cc3nc2Nc2ccc(OC)c(C(F)(F)F)c2)cc1C(F)(F)F [Compound 35, N2, N3-bis(4-methoxy-3-(trifluoromethyl)phenyl)-6-nitroquinoxaline-2,3-diamine] | 9.73 | 0.65
